Experimental data from ChEMBL document CHEMBL2412974, “Dimeric and trimeric triazole based molecules as a new class of Hsp90 molecular chaperone inhibitors” (Eur J Med Chem, 2013).

Sequences of proteins named here, by UniProt entry; tags and fusion partners are left off.
UniProt P08238, whole entry: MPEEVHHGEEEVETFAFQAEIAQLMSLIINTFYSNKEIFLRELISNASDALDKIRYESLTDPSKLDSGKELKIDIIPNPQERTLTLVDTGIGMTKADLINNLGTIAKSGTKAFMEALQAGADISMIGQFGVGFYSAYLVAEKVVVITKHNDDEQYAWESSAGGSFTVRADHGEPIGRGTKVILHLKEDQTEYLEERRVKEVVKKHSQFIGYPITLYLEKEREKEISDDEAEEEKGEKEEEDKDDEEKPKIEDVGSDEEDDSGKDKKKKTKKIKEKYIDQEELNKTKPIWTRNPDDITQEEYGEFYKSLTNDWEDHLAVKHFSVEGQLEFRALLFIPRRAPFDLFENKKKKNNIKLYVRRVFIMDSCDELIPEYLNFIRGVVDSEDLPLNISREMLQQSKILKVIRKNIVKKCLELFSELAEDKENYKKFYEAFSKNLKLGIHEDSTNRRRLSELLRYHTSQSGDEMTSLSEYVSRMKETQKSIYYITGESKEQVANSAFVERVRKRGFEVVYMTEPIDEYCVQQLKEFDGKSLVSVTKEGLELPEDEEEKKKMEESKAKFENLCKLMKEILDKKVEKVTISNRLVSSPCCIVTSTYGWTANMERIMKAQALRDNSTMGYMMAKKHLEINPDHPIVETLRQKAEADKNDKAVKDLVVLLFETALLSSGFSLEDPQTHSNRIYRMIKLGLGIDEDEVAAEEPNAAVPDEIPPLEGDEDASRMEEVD

Target: Heat shock protein HSP 90-beta (Homo sapiens, UniProt P08238)
Assay: Inhibition of human Hsp90 ATPase activity assessed as inhibition of ATP hydrolysis after 60 mins by fluorimetric analysis

With `c1ccc2c(Cn3cc(-c4ccc(-c5cn(Cc6cccc7ccccc67)nn5)cc4)nn3)cccc2c1` the inhibition was “inactive”.

Activity calls are given as the source filed them. The rule behind the calls is not given here.
